Where a name gives a salt, the structure may show the parent alone.
Test system: lipase
Assay: Lipase/lipolysis assay (EnzChek Lipase Substrate, quenched BODIPY-fatty acid conjugate) on stored human milk; as to Lipase (RFU): test concentration or dose not given here
Details: Biolog PM1 compound added to fresh human milk, stored 1 week at −20° C.; RFU <400 = hit

| SMILES | Lipase (RFU) |
| --- | --- |
| O=C(CO)[C@@H](O)[C@H](O)[C@H](O)COP(=O)(O)O [D-Fructose-6-Phosphate] | 1197.545 |
| COC(=O)C(C)=O [Methyl Pyruvate] | 205.0162 |

Same assay, conditions: Biolog PM2a compound added to fresh human milk, stored 1 week at −20° C.; RFU <400 = hit

| SMILES | Lipase (RFU) |
| --- | --- |
| O=C1CC[C@@H](C(=O)O)N1 [L-Pyroglutamic Acid] | 891.6509 |
| N[C@@H](Cc1ccccc1)C(=O)O [L-Phenylalanine] | 853.3612 |
| O=C(O)[C@]1(O)C[C@@H](O)[C@@H](O)[C@H](O)C1 [Quinic Acid] | 1030.135 |
| C/C=C/C=C/C(=O)O [Sorbic Acid] | 390.5742 |

Same assay, conditions: Biolog PM4 compound added to fresh human milk, stored 1 week at −20° C.; RFU <400 = hit

| SMILES | Lipase (RFU) |
| --- | --- |
| N[C@H](COP(=O)(O)O)C(=O)O [O-Phospho-D-Serine] | 913.5487 |
| C[S+]([O-])CC[C@H](N)C(=O)O (stereo partly drawn) [L- Methionine Sulfoxide] | 820.2856 |
| CS(=O)(=O)O [Methane Sulfonic Acid] | 943.4595 |
| O=C(O)COP(=O)(O)O [Phospho- Glycolic Acid] | 939.7996 |
| C[C@@H](OP(=O)(O)O)[C@H](N)C(=O)O [O-Phospho-L-Threonine] | 752.2541 |
| Nc1nc2c(ncn2[C@@H]2O[C@H](CO)[C@@H](O)[C@H]2OP(=O)(O)O)c(=O)[nH]1 [Guanosine-2′-monophosphate] | 884.9602 |

Same assay, conditions: Biolog PM5 compound added to fresh human milk, stored 1 week at −20° C.; RFU <400 = hit

| SMILES | Lipase (RFU) |
| --- | --- |
| N[C@@H](Cc1ccccc1)C(=O)O [L-Phenylalanine] | 595.2894 |
| O=c1ccn([C@H]2C[C@H](O)[C@@H](CO)O2)c(=O)[nH]1 [2′-Deoxy Uridine] | 822.7632 |

Same assay, conditions: Food Additive Library compound added to fresh human milk, stored 1 week at −20° C., thawed at room temperature; RFU of <400 considered a hit

| SMILES | Lipase (RFU) |
| --- | --- |
| CCOc1ccc2c(c1)C(C)=CC(C)(C)N2 [Ethoxyquin] | 1095.72 |
| COc1cc(CCC(C)=O)ccc1O [Zingerone] | 802.7858 |
| CC(C)(CO)[C@@H](O)C(=O)NCCCO [D-Panthenol] | 659.466 |
| COc1ccc(C=O)c(O)c1 [2-Hydroxy-4-methoxybenzaldehyde] | 932.9902 |
| CCOC(=O)CC(C)=O [Ethyl acetoacetate] | 1035.068 |
| N[C@@H](Cc1ccccc1)C(=O)O [L-Phenylalanine] | 811.2971 |
| O=C1O[C@H]([C@@H](O)CO)C(O)=C1O [L-Ascorbic acid] | 707.8035 |
| C=CCCCCCCCCC(=O)O [10-Undecenoic acid] | 1048.253 |
| C=C[C@H]1C[N@@]2CC[C@H]1C[C@H]2[C@H](O)c1ccnc2ccc(OC)cc12 [Quinine (hydrochloride dihydrate)] | 1081.551 |
| CCCCCC1C(=O)CCC1CC(=O)OC (stereo not drawn) [Methyl dihydrojasmonate] | 1041.908 |
| C[C@H](CCC(=O)NCC(=O)O)[C@H]1CC[C@H]2[C@@H]3[C@H](O)C[C@@H]4C[C@H](O)CC[C@]4(C)[C@H]3C[C@H](O)[C@]12C [Glycocholic acid] | 868.0625 |
| CC(C)=CCC/C(C)=C/CO [Geraniol] | 1028.31 |
| O=C(O)c1ccccc1O [Salicylic acid] | 1390.025 |
| CCCCC/C=C/C=C/C=O [trans, trans-2,4-Decadienal] | 1141.703 |
| CC(C)=CCO [Compound 3-Methyl-2-buten-1-ol, 3-Methyl-2-buten-1-ol] | 1025.112 |
| COc1cc(CO)ccc1O [Vanillyl alcohol] | 1046.308 |
| CC1=CCC(C(C)C)=CC1 [γ-Terpinene] | 918.7096 |
| CCCCC(C)CCC(=O)O (stereo not drawn) [4-Methyloctanoic acid] | 819.5904 |
| C=CCc1ccc(OC(C)=O)c(OC)c1 [Eugenol acetate] | 1060.809 |
| CC(=O)c1cnccn1 [Acetylpyrazine] | 840.2329 |
| C/C=C/C=C/C(=O)O [Sorbic Acid] | 913.5254 |
| CC(=O)OCC(COC(C)=O)OC(C)=O [Triacetin] | 821.4356 |
| O=C(O)CC(O)(CC(=O)O)C(=O)O [Citric acid (trisodium)] | 1189.911 |

Same assay, conditions: Food-Sourced Compound Library compound added to fresh human milk, stored 1 week at −20° C., thawed at room temperature; RFU <400 considered a hit

| SMILES | Lipase (RFU) |
| --- | --- |
| NCc1c[nH]c2ccccc12 [Indole-3-methanamine] | 774.4333 |
| C[C@H](O)CC(=O)O [(S)-3-Hydroxybutanoic acid] | 979.3394 |
| C[C@@H]1O[C@@H](O[C@H]2[C@H](Oc3cc(O)c4c(=O)cc(-c5ccc(O)cc5)oc4c3)O[C@H](CO)[C@@H](O)[C@@H]2O)[C@H](O)[C@H](O)[C@H]1O [Rhoifolin] | 1023.714 |
| N[C@@H](Cc1ccccc1)C(=O)O [L-Phenylalanine] | 970.364 |
| COc1ccc(CC(=O)O)cc1OC [3,4-Dimethoxyphenylacetic acid] | 891.1594 |
| OC[C@H]1O[C@@H](Oc2cc3c(O)cc(O)cc3[o+]c2-c2ccc(O)c(O)c2)[C@H](O)[C@@H](O)[C@H]1O.[Cl-] [Cyanidin-3-O-galactoside (chloride)] | 953.1035 |
| C=CCCCCCCCCC(=O)O [10-Undecenoic acid] | 1056.535 |
| O=C(O)Cc1c[nH]c2ccc(O)cc12 [5-Hydroxyindole-3-acetic acid] | 1051.332 |
| CC(/C=C/C=C(\C)C(=O)O[C@@H]1O[C@H](CO[C@@H]2O[C@H](CO)[C@@H](O)[C@H](O)[C@H]2O)[C@@H](O)[C@H](O)[C@H]1O)=C\C=C\C=C(C)\C=C\C=C(/C)C(=O)O[C@@H]1O[C@H](CO[C@@H]2O[C@H](CO)[C@@H](O)[C@H](O)[C@H]2O)[C@@H](O)[C@H](O)[C@H]1O [Crocin] | 1338.047 |
| CC(=O)SCCNC(=O)CCNC(=O)[C@H](O)C(C)(C)COP(=O)(O)OP(=O)(O)OC[C@H]1O[C@@H](n2cnc3c(N)ncnc32)[C@H](O)[C@@H]1OP(=O)(O)O.[Na].[Na].[Na] [Acetyl Coenzyme A (trisodium)] | 1209.897 |
| COc1c(OC)c2occc2c2oc(=O)ccc12 [Pimpinellin] | 815.023 |
| C[C@@H](O)[C@@H](N)C(=O)O [D-Allothreonine] | 901.7798 |
| COc1cc([C@H]2c3cc(O)c(OC)cc3C[C@@H](CO)[C@@H]2CO)ccc1O [(+)-Isolariciresinol] | 830.6093 |
| CNC(=O)c1cccnc1 [N-Methylnicotinamide] | 996.1346 |
| CC(CCC(=O)O)CC(=O)O (stereo not drawn) [3-Methyladipic acid] | 819.9749 |
| NCCc1c[nH]cn1 [Histamine] | 810.6531 |
| COc1cc(O)c2c(=O)c(O)c(-c3ccc(O)c(O)c3)oc2c1 [Rhamnetin] | 1025.752 |

Same assay, conditions: approximately 2700 compound screen, human milk stored 1 week at −20° C.; hit = RFU <400

| SMILES | Hit in lipase inhibition screen (in words) |
| --- | --- |
| C/C=C/C=C/C(=O)O [Sorbic Acid] | significantly inhibited lipase activity |
| COC(=O)C(C)=O [Methyl Pyruvate] | significantly inhibited lipase activity |

Same assay, conditions: compound added to fresh human milk, stored 1 week at −20° C., thawed at room temperature; RFU <400 considered a hit

| SMILES | Lipase (RFU) |
| --- | --- |
| CC1OC(OC2C(=O)c3c(O)cc(O)cc3OC2c2ccc(O)cc2)C(O)C(O)C1O (stereo not drawn) [Engeletin] | 975.6839 |
| COc1cc2c(=O)c(-c3ccc(O)cc3)coc2cc1O [Glycitein] | 869.1073 |
| COC(=O)[C@@H](Cc1ccc(O)c(O)c1)OC(=O)/C=C/c1ccc(O)c(O)c1 [Methyl rosmarinate] | 1056.902 |
| O=c1[nH]cc(CO)c(=O)[nH]1 [Compound 5-Hydroxymethyluracil, 5-Hydroxymethyluracil] | 848.2073 |
| COc1ccc(C=O)c(O)c1 [2-Hydroxy-4-methoxybenzaldehyde] | 1139.589 |
| NC(=O)CC[C@@H](N)C(=O)O [D-Glutamine] | 1027.219 |
| C=C(C)[C@@H]1CC[C@]2(C)CC[C@]3(C)[C@H](CC[C@@H]4[C@@]5(C)CC[C@H](O)C(C)(C)[C@@H]5CC[C@]43C)[C@@H]12 [Lupeol] | 752.6333 |
| Cc1cccs1 [Compound 2-Methylthiophene, 2-Methylthiophene] | 999.7036 |
| CNCC(O)c1ccc(O)cc1 (stereo not drawn) [Synephrine] | 1134.338 |
| COc1cc(/C=C/C(=O)O)cc(O)c1O [5-Hydroxyferulic acid] | 919.0657 |
| OC[C@H]1O[C@@H](Oc2cc(O)cc(/C=C/c3ccc(O)cc3)c2)[C@H](O)[C@@H](O)[C@@H]1O [Polydatin] | 998.3778 |
| CCCCCCCCCCCC(C)=O [Compound 2-Tridecanone, 2-Tridecanone] | 1003.44 |
| CC1OC(OCC2OC(Oc3c(-c4ccc(O)cc4)oc4cc(OC5OC(C)C(O)C(O)C5O)cc(O)c4c3=O)C(O)C(O)C2O)C(O)C(O)C1O (stereo not drawn) [Robinin] | 959.7555 |
| NCCc1c[nH]cn1.O=P(O)(O)O [Histamine (phosphate)] | 856.2289 |
| CC(=O)NCCCCCN [N-(5-Aminopentyl)acetamide] | 912.4909 |
| Oc1cc(O)c2cc(O)c(-c3ccc(O)c(O)c3)[o+]c2c1.[Cl-] [Cyanidin (Chloride)] | 1061.561 |
| CCCCCC1C(=O)CCC1CC(=O)OC (stereo not drawn) [Methyl dihydrojasmonate] | 916.1332 |
| COc1cc(CCO)ccc1O [Homovanillyl alcohol] | 1114.77 |
| O=C([NH2+][O-])c1cccnc1 [Nicotinamide N-oxide] | 920.4201 |
| O=C(O)c1cccc(O)c1 [3-Hydroxybenzoic acid] | 901.3799 |
| CCCCC/C=C/C=C/C=O [trans, trans-2,4-Decadienal] | 635.5627 |
| COc1cc(CO)ccc1O [Vanillyl alcohol] | 883.0853 |
| CC(C)=CCC[C@@H](C)[C@H]1CC[C@H]2[C@@H]3CC=C4C[C@@H](O)CC[C@]4(C)[C@H]3CC[C@]12C [Desmosterol] | 1192.638 |
| O=C(O)c1ccc[nH]1 [Pyrrole-2-carboxylic acid] | 799.649 |
| C=CCc1ccc(OC(C)=O)c(OC)c1 [Eugenol acetate] | 1041.765 |
| O=c1cc(-c2ccc(O)cc2)oc2cc(O)c([C@@H]3O[C@H](CO)[C@@H](O)[C@H](O)[C@H]3O)c(O)c12 [Isovitexin] | 851.2752 |
| CS(C)(=O)=O [Dimethyl sulfone] | 871.2068 |
| CC(C)[C@@H](C)/C=C/[C@@H](C)[C@H]1CC[C@H]2C3=CC=C4C[C@@H](O)CC[C@]4(C)[C@H]3CC[C@]12C [Ergosterol] | 678.6297 |
